Data: US20030109418A1, “Methods for identifying compounds for inhibition of neoplastic lesions, and pharmaceutical compositions containing such compounds” (priority 1999, published 2003)

Biological target: T1, PDE peak A (PDE5) from SW480 cells (Homo sapiens, UniProt O76074)
T1 construct: endogenous in cells; host or cells: SW480 colon cancer cells, DEAE-Trisacryl M fraction
Experiment: cGMP hydrolysis inhibition, PDE peak A from SW480
Type: biochemical

- IC50: 3 nM
SMILES: O=C(O)C1CCN(c2nc(NCc3ccc4c(c3)OCO4)c3cc(Cl)ccc3n2)CC1 [Compound E4021]
